The assay concerns the target T1, endogenous TRIM16 (human, UniProt O95361).
T1 construct: Endogenous protein, immunoprecipitated from cell lysates
Put plainly: co-IP and reverse co-IP of endogenous proteins, HeLa cells.

B1: endogenous ATG16L1 (other, UniProt Q676U5 1-607, looked up)
chain: MSSGLRAADFPRWKRHISEQLRRRDRLQRQAFEEIILQYNKLLEKSDLHSVLAQKLQAEKHDVPNRHEISPGHDGTWNDNQLQEMAQLRIKHQEELTELHKKRGELAQLVIDLNNQMQRKDREMQMNEAKIAECLQTISDLETECLDLRTKLCDLERANQTLKDEYDALQITFTALEGKLRKTTEENQELVTRWMAEKAQEANRLNAENEKDSRRRQARLQKELAEAAKEPLPVEQDDDIEVIVDETSDHTEETSPVRAISRAATKRLSQPAGGLLDSITNIFGRRSVSSFPVPQDNVDTHPGSGKEVRVPATALCVFDAHDGEVNAVQFSPGSRLLATGGMDRRVKLWEVFGEKCEFKGSLSGSNAGITSIEFDSAGSYLLAASNDFASRIWTVDDYRLRHTLTGHSGKVLSAKFLLDNARIVSGSHDRTLKLWDLRSKVCIKTVFAGSSCNDIVCTEQCVMSGHFDKKIRFWDIRSESIVREMELLGKITALDLNPERTELLSCSRDDLLKVIDLRTNAIKQTFSAPGFKCGSDWTRVVFSPDGSYVAAGSAEGSLYIWSVLTGKVEKVLSKQHSSSINAVAWSPSGSHVVSVDKGCKAVLWAQY
As to B1, the binding result was “binds”.
